Measurements taken from patent US9757455B2, “Oral therapeutic compound delivery system” (Johnson & Johnson Consumer Inc., priority 2005, dated 2017).

Experiment: Dissolution, USP dissolution apparatus 2, 900 mL 0.0033 N hydrochloric acid, 0 rpm, 37° C.
Type: physicochemical
Details: basic and amphoteric drugs in formulations according to the invention (Table 32), 300 sec

% dissolved in 900 mL 0.0033 N HCl: 102%
SMILES: CN(C)CCc1c[nH]c2ccc(Cn3cncn3)cc12 [Rizatriptan benzoate]
